Results published in PubChem BioAssay AID1008 (NMMLSC, 2008).
This is a selection; strong and weak results do not stand in their true shares. Calls of active or inactive are those of the source. Cut-off read from the data, not from the text of the source: active = inhibition above about 40%.

Sequences of proteins named here, by UniProt entry; tags and fusion partners are left off. A change or cut given only in a name is not applied to a line headed by its entry.
UniProt Q16548: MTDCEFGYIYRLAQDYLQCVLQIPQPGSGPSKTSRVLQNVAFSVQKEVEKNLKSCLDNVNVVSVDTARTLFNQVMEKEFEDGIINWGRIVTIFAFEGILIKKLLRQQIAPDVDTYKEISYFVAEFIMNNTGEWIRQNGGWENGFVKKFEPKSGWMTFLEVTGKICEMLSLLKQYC

Molecular target: Bcl-2-related protein A1 (Homo sapiens) (UniProt Q16548)
Experiment: Bfl-1/Bim complex disruptors – biochemical, multiplexed, bead-based flow cytometry, primary screen (AID 1008);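 note: 0% = wells without compound plus tracer and 100% = blocker peptide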
Settings: Bim-Bfl-1 binding inhibition, at 10 µM, stronger effect = higher value

Compound | inhibition
O=[N+]([O-])c1ncn(CCn2ncnc2[N+](=O)[O-])n1 | inactive: -2%
CCN(/C(=N/P(=O)(N1CCOCC1)N1CCOCC1)N1CCOCC1)c1ccc(OC)cc1 | inactive: 2%
CC1CCN(C(=O)Oc2c(Cl)cc(Cl)c3cccnc23)CC1 | inactive: -4%
CC(C)=N/N=C(\N)N[N+](=O)[O-] | inactive: -11%
CN(C)C(=O)OCCc1n(C)cc[n+]1C | inactive: -4%
COc1ccc(C2=NCC(CBr)S2)cc1 (centres undefined) | inactive: -9%
Cc1ccc(NP(=O)(Oc2ccccc2)Oc2ccccc2)nc1 | inactive: -5%
CCc1nc2c(n1)c1c(non1O)c1c2no[n+]1[O-] | inactive: 19%
O=[N+]([O-])c1cc([N+](=O)[O-])c(CCNc2ccccc2)c([N+](=O)[O-])c1 | inactive: -1%
O=[N+]([O-])c1cccc2n[nH]nc12 | inactive: -9%
CC(=O)N1C2C3N(C(C)=O)C1C1N(C(C)=O)C(C(N1C(C)=O)N3C(C)=O)N2C(C)=O | inactive: -7%
Oc1ccccc1CNc1ccccn1 | inactive: -21%
Cc1c2non([O-])c-2c(C)[n+](=O)[n+]1[O-] | inactive: 4%
O=C(NC(Sc1ccncn1)C(Cl)(Cl)Cl)c1ccccc1 (centres undefined) | inactive: 0%
CC(C)CC(=O)NC(Sc1ccc(Cl)cc1)C(Cl)(Cl)Cl (centres undefined) | inactive: -9%
Cc1ccc(N/C(=N/P(=O)(N2CCOCC2)N2CCOCC2)N2CCOCC2)cc1 | inactive: -1%
NC(=O)c1cc([N+](=O)[O-])cc([N+](=O)[O-])c1N | inactive: -2%
Clc1ccc(Cl)c(NC2=NCC(CBr)S2)c1 (centres undefined) | inactive: -3%
CN1CCCC(OC(=O)C(c2ccccc2)c2ccccc2)C1 (centres undefined) | inactive: 3%
COc1ccccc1OP(=O)(Nc1ccc(C)cn1)Oc1ccccc1OC | inactive: -6%
CCN(N=Nc1nonc1N)c1nonc1N | inactive: -16%
CCOP(=O)(Nc1ccccc1)OCC | inactive: -11%
Cc1cc(SC(NC(=O)c2ccc(F)cc2)C(Cl)(Cl)Cl)ncn1 (centres undefined) | inactive: -10%
CCC(=O)N1C2C3N(C(=O)CC)C1C1N(C(=O)CC)C(C(N1C(=O)CC)N3C(=O)CC)N2C(=O)CC | inactive: 6%
COC(=O)c1cc2c(s1)N=C(c1ccccc1)N(C)P2(=O)N1CCOCC1 (centres undefined) | inactive: -3%
Cc1ccc(OP(=O)(Nc2ccccn2)Oc2ccc(C)cc2)cc1 | inactive: -1%
CC(=O)NC(SC(=S)N(CC(C)C)CC(C)C)C(Cl)(Cl)Cl (centres undefined) | inactive: 1%

Compound | inhibition
O=c1c2cc([N+](=O)[O-])ccc2[nH]c2c([N+](=O)[O-])cc([N+](=O)[O-])cc12 | inactive: -5%
c1ccc(-c2nn[nH]n2)c(-c2nn[nH]n2)c1 | inactive: 9%
CCOC(=O)NC(Sc1ccccc1)C(Cl)(Cl)Cl (centres undefined) | inactive: 0%
CCNC(=S)/N=C(\N)N[N+](=O)[O-] | inactive: -4%
O=C(NC1CCS(=O)(=O)C1)NP(=S)(Oc1ccccc1)Oc1ccccc1 (centres undefined) | inactive: -8%
CC(=O)Nc1ccc(Oc2c([N+](=O)[O-])cc([N+](=O)[O-])cc2[N+](=O)[O-])cc1 | inactive: -1%
O=P1(Nc2nc3ccc(Cl)cc3s2)COc2ccccc2O1 (centres undefined) | inactive: -9%
CCOc1ccc(C2=NCC(CBr)S2)cc1 (centres undefined) | inactive: -1%
CC(C)(C)C(=O)NC(Sc1ccccc1)C(Cl)(Cl)Cl (centres undefined) | inactive: -4%
CC(C)C(=O)NC(Sc1ccccc1)C(Cl)(Cl)Cl (centres undefined) | inactive: -15%
O=P(Nc1nccs1)(c1ccccc1)c1ccccc1 | inactive: -11%
c1nnnn1CCn1cnnn1 | inactive: -9%
CC(=O)NC(SC(=S)N(C)C)C(Cl)(Cl)Cl (centres undefined) | inactive: -2%
O=C(OC1CN2CCC1CC2)c1cccc(Cl)c1 (centres undefined) | inactive: -4%
C(Cc1nn[nH]n1)Cc1nn[nH]n1 | inactive: -2%
O=P(Nc1ccccn1)(c1ccc(Br)cc1)c1ccc(Br)cc1 | inactive: -5%
O=P1(Nc2ncccn2)COc2ccccc2OC1 | inactive: -10%
O=P1(Nc2ccc(Br)cn2)COc2ccccc2OC1 | inactive: -6%
Cc1ccc(OCC(=O)OC2CN3CCC2CC3)cc1 (centres undefined) | inactive: -12%
Cc1nn(-c2ccccc2)c2c1P(=O)(N1CCOCC1)N(C)C(c1ccccc1)=N2 (centres undefined) | inactive: -4%
CC1CCC(C(C)C)C(OP(=O)(Nc2ccccn2)c2ccccc2)C1 (centres undefined) | inactive: -9%
CN(C)C1(CNC(=O)c2ccc(S(C)(=O)=O)cc2)CCCCC1 | inactive: 2%
CC(C)/C=N\N=C(\N)N[N+](=O)[O-] | inactive: -6%
CN(C(=O)Cc1ccc(Cl)c(Cl)c1)[C@@H]1CCCC[C@H]1N1CCCC1 | inactive: 0%
O=P1(Nc2ccccn2)COc2ccccc2OC1 | inactive: -16%
Clc1n[nH]nc1-c1nn[nH][15n]1 | inactive: -20%
Cc1ccc(NCCc2c([N+](=O)[O-])cc([N+](=O)[O-])cc2[N+](=O)[O-])cc1 | inactive: 1%

Compound | inhibition
COc1cc(C2NCCC3(OCCO3)C2(C)C)cc(OC)c1OC (centres undefined) | inactive: -5%
CCOP(=O)(Nc1cccc2ccccc12)OCC | inactive: -4%
COc1cc(C(=O)NCC2(N3CCOCC3)CCCCC2)cc(Cl)c1OC(C)C | inactive: -8%
Cc1cccc(OCC(=O)OC2CN3CCC2CC3)c1 (centres undefined) | inactive: -2%
CCOP1(=S)c2c(C)nn(CCC#N)c2N=C(c2ccc(F)cc2)N1C (centres undefined) | inactive: -9%
O=[N+]([O-])c1ccc2c(c1)nnn2O | inactive: -6%
CCOP1(=S)c2c(C)nn(CCC#N)c2N=C(c2ccccc2F)N1C (centres undefined) | inactive: -10%
O=P(Nc1nccs1)(c1ccccc1)c1nc2ccccc2s1 (centres undefined) | inactive: -12%
O=P(Nc1nccs1)(Oc1ccccc1)Oc1ccccc1 | inactive: -4%
ClCCSc1nnc(-c2cccnc2)o1 | inactive: -5%
CCN(CC)C(=S)SC(NC=O)C(Cl)(Cl)Cl (centres undefined) | inactive: 0%
CC(C)NC(=O)NP(=O)(Oc1ccccc1)Oc1ccccc1 | inactive: -9%
O=[N+]([O-])c1cc([N+](=O)[O-])c(-c2ccn[nH]2)s1 | inactive: 1%
Cc1ccc2nc3c(c(C)c2c1)CC(C(Cl)Cl)S3 (centres undefined) | inactive: -10%
COc1ccc(N/C(=N/P(=O)(N2CCOCC2)N2CCOCC2)N2CCOCC2)cc1 | inactive: -9%
Cc1c2c(nc3ccccc13)SC(C(Cl)Cl)C2 (centres undefined) | inactive: -13%
O=C(OC1CN2CCC1CC2)C12CC3CC(CC(C3)C1)C2 (centres undefined) | inactive: -12%
Cc1cc(=O)[nH]c(N[N+](=O)[O-])n1 | inactive: -6%
COc1ccc2nc(NP(=O)(c3ccccc3)c3ccccc3)sc2c1 | inactive: -4%
CCC(C)N(CC(C)C)C(=S)SC(NC(C)=O)C(Cl)(Cl)Cl (centres undefined) | inactive: 3%
COP1(=S)c2c(C)nn(CCC#N)c2N=C(c2ccc(F)cc2)N1C (centres undefined) | inactive: -10%
O=C(COc1ccccc1)OC1CN2CCC1CC2 (centres undefined) | inactive: -4%
O=P(Nc1ccccn1)(c1cccc2ccccc12)c1cccc2ccccc12 | inactive: -7%
Cc1cc(SC(NC=O)C(Cl)(Cl)Cl)ncn1 (centres undefined) | inactive: 0%
Cc1cc(SC(NC(=O)c2ccccc2)C(Cl)(Cl)Cl)nc(C(C)C)n1 (centres undefined) | inactive: 19%
